The entries are a selection whose mix differs from that of the whole data set. Calls of active or inactive are those of the source. No stated cut-off is given here; in the data, active means inhibition above about 22% (passing the limit was not always enough); inactive means the rest.

By UniProt entry, the sequences of proteins in these tests, tags left out.
UniProt P35372, whole entry, looked up: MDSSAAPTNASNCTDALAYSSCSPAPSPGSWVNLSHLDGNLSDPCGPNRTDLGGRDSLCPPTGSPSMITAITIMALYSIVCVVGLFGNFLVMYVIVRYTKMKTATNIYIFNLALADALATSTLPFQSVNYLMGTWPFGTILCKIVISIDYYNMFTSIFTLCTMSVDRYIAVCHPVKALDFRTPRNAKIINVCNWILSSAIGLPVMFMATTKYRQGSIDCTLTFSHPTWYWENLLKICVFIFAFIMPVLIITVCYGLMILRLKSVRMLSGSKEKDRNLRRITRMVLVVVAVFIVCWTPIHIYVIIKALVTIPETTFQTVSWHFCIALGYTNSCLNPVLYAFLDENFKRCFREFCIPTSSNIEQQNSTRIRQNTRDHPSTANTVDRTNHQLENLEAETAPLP
UniProt P41143, whole entry, looked up: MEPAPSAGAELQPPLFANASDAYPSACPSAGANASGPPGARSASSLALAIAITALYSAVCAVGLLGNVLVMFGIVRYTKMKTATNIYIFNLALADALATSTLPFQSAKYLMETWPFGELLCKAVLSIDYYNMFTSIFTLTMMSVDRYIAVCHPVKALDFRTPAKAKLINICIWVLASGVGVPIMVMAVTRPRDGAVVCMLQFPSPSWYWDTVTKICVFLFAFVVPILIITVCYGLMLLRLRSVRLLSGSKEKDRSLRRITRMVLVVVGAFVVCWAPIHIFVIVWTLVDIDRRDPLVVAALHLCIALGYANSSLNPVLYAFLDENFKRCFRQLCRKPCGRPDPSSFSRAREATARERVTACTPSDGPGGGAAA

This experiment concerns the target Mu-type opioid receptor (Homo sapiens) + Delta-type opioid receptor (Homo sapiens) (UniProt P35372+P41143). Kind of experiment: OPRM1-OPRD1 heterodimer inverse agonism – cell-based, luminescence, primary screen (AID 504357).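 Further: 0% = cells with DMSO and 100% = wells without cells with DMSO.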 The following applies: cell-based MOR-DOR heterodimer luminescence, at 9.3 µM, stronger effect = higher value.
For `CC(O)c1nc2ccccc2n1CC(=O)N1CCN(c2ccccc2)CC1` (stereo unspecified), the inhibition was inactive: -5.83%.
Turning to `CCOCN(C(=O)Cn1c(C(C)O)nc2ccccc21)c1c(C)cccc1CC` (stereo unspecified), the inhibition was inactive: 12.9%.
Turning to `CCN(CC)CCn1c(NS(=O)(=O)c2ccc(C)cc2)nc2ccccc21`, the inhibition is inactive: -9.71%.
As for `CC(CNC(=O)Cn1cnc2c(NCc3ccccc3)ncnc21)c1ccccc1` (stereo unspecified), the inhibition was inactive: 9.55%.
Take `CN(C(=O)Cc1ccc(Cl)c(Cl)c1)[C@H]1CCCC[C@H]1N1CCCC1`: the inhibition is inactive: 5.92%.
Regarding `O=C(CSc1nc2ccccc2n1CC(=O)N1CCCCC1)N1CCCCC1`, the inhibition is inactive: 11.4%.
In the case of `Cc1ccc2c(c1)C1CN(C)CCC1N2C(=O)c1ccc(Cl)c(S(=O)(=O)N2CCOCC2)c1` (stereo unspecified), the inhibition is inactive: 12.7%.
For `CC1CCCN(C(=O)Cn2c(-c3nonc3N)nc3ccccc32)C1` (stereo unspecified), the inhibition is inactive: 11%.
To `O=C(Nc1ccccc1)N1CCC(n2c(=O)[nH]c3ccccc32)CC1` belongs inactive: 3.82%; to `NC(=O)c1cc([N+](=O)[O-])cc([N+](=O)[O-])c1N`, inactive: -11.3%.
For `C[C@H](O)[C@@H]1C(=O)N2CCc3ccc(-c4ccccc4)cc3[C@@H]2C[C@@H]1N(C)C(=O)NC1CCCCC1`, the inhibition was inactive: 10.2%.
With `CSc1nc(N)nc2c1ncn2CC(=O)NCc1ccc2[nH]ccc2c1` the figure was inactive: 19.1%; with `CN(CC(=O)Nc1ccc(F)c(F)c1F)C(=O)Cn1cnc2c1c(=O)n(C)c(=O)n2C`, inactive: -9.08%.
Take `CN(C)C(=O)Cn1c(SCC(=O)Nc2ccc3c(c2)OCO3)nc2ccccc21`: the inhibition was inactive: 8.85%.
For the compound `CCC(C(=O)NC1CCCCC1)n1c(SCc2ccc(F)cc2)nc2ccncc21` (stereo unspecified), the inhibition was inactive: -4.12%.
For `Cc1ccc(-c2csc(N3CCN(c4ccc5nc(-c6ccncc6)n(CCN6CCCCC6)c5c4)CC3)n2)cc1`, the inhibition was inactive: -1.49%.
With `Nc1nonc1-c1nc2ccccc2n1CC(=O)N/N=C\c1ccc(-c2ccc(Cl)cc2)o1` the figure was inactive: -8.2%; with `Cc1n[nH]c(C)c1CCC(=O)N/N=C/C=C/c1ccccc1`, inactive: 7.3%; with `COc1ccc(C)cc1S(=O)(=O)N1c2ccc(C)cc2C2CN(C)CCC21` (stereo unspecified), inactive: 3.95%.
On to `O=C1Cn2c(nc3ccccc32)N1c1ccccc1F`, for which the inhibition is inactive: 3.98%.
With `N=c1n(CCCOc2ccc(F)cc2)c2ccccc2n1CC(N)=O` the figure was inactive: 17.1%; with `CCC(=O)Nc1ccc2c(c1)nc1n2CCN(CCOC)C1`, inactive: 2.91%; with `O=C(c1cccc(Cl)c1)N1CCn2c1nc1ccccc12`, inactive: 18.5%.
For the compound `C=CCOC(=O)C1=C(C)N=C2SCCC(=O)N2C1/C=C/c1ccccc1OC` (stereo unspecified), the inhibition is inactive: 4.16%.
`CCCCNc1nc2ccccc2n1CC(=O)N1CCc2ccccc2C1`: the inhibition was inactive: 11.2%.
On to `O=C(Cn1c(-c2cscn2)nc2ccccc21)Nc1ccc(Cl)cc1`, for which the inhibition was inactive: 3.78%.
As to `CC1CCCC(C)N1C(=O)Cn1c(SCC(=O)NCc2ccc3c(c2)OCO3)nc2ccccc21` (stereo unspecified), the inhibition is inactive: -2.86%.
As for `S=C=Nc1cccc(C2(N3CCCCC3)CCCCC2)c1`, the inhibition was inactive: -7.64%.
`CCOc1ccc(C(O)Cn2c(=N)n(CCN3CCCCC3)c3ccccc32)cc1` (stereo unspecified): the inhibition is inactive: 12%.
As to `Cn1c(=O)c2ncn(CC(=O)NCCC3=CCCCC3)c2n(C)c1=O`, the inhibition was inactive: 1.58%.
With `CCN(CC)CCn1c(/N=C/c2cc(Br)ccc2O)nc2ccccc21` the figure was inactive: 5.8%.
Regarding `Cn1c(=O)c2c(ncn2CC(=O)N2CCN(S(=O)(=O)c3ccc(F)cc3)CC2)n(C)c1=O`, the inhibition is inactive: 10.3%.
With `CCCn1c(=O)[nH]c(=O)c2c1nc(-c1ccccc1)n2CCN1CCOCC1`, the inhibition is inactive: 9.17%.
Turning to `CCCCC(=O)N/N=C(C)/C=C/c1ccccc1F`, the inhibition is inactive: -16.8%.
With `Cn1c(=O)c2c(ncn2CC(=O)Nc2cc(S(=O)(=O)N3CCCCC3)ccc2O)n(C)c1=O` the figure was inactive: 16.2%; with `CC(C)[C@H](NC(=O)N1CCn2c1nc1ccccc12)C(=O)NCC1CCCO1` (stereo partly specified), inactive: 9.4%; with `Cc1ccc(-c2csc(N3CCN(c4cc5c(cc4Cl)nc(-c4ccncc4)n5CCN4CCCCC4)CC3)n2)cc1`, inactive: 3.58%.
In the case of `O=C(NC(Sc1ccncn1)C(Cl)(Cl)Cl)c1ccccc1` (stereo unspecified), the inhibition was inactive: 10.4%.
To `O=C(Cn1c(CO)nc2ccccc21)NCCc1ccc(F)cc1` belongs inactive: 5.26%; to `Nc1ncnc2c1ncn2CCN1CCCCC1`, inactive: 8.94%.
Turning to `CCN(C(=O)Cn1cnc2c1c(=O)n(C)c(=O)n2C)C1CCS(=O)(=O)C1` (stereo unspecified), the inhibition is inactive: 12.1%.
For `CCN(C(=O)Cn1cnc2c1c(=O)n(C)c(=O)n2C)C1CCCCC1`, the inhibition was inactive: 13.8%.
For `COCCN1CCn2c(nc3cc([N+](=O)[O-])ccc32)C1`, the inhibition is inactive: -0.32%.
Regarding `Oc1ccccc1CNc1ccccn1`, the inhibition is inactive: -7.4%.
For `CCC(=O)N1c2ccc(S(=O)(=O)CCC(=O)N3CCn4c3nc3ccccc34)cc2CC1C` (stereo unspecified), the inhibition was inactive: -6.16%.
Take `O=C(Cn1cnc2c(NCc3ccccc3)ncnc21)NCCN1CCOCC1`: the inhibition was inactive: 12.8%.
Consider `Nc1cc(N)c2nonc2c1[N+](=O)[O-]`, for which the inhibition was inactive: -9.31%.
`O=C(Nc1nc2ccccc2n1CCN1CCOCC1)c1ccc(Cl)cc1`: the inhibition is inactive: -2.09%.
With `N=c1n(CCOc2ccccc2)c2ccccc2n1CCN1CCOCC1` the figure was inactive: 15.6%; with `CC(C)CC(=O)NC(Sc1ccc(Cl)cc1)C(Cl)(Cl)Cl` (stereo unspecified), inactive: -19.9%.
With `CSCC[C@H](NC(=O)N1CCn2c1nc1ccccc12)C(=O)NCc1ccc(C)cc1` the figure was inactive: -2.53%; with `CN(C)CCn1c(COc2ccccc2)nc2ccccc21`, inactive: 11.3%; with `Cc1ccccc1C(=O)Nc1cccc(NC(=O)Cn2cnc3c(=O)n(C)c(=O)n(C)c32)c1`, inactive: 4.93%.
With `CCc1cccc(CC)c1NC(=O)Cn1c(-c2ccccc2Cl)nc2ccccc21` the figure was inactive: -3.09%.
As to `COCCCNC(=O)CC1C(=O)N(Cc2ccccc2)C(C)c2nc3ccccc3n21` (stereo unspecified), the inhibition is inactive: 15.3%.
For `O=C(Cn1cnc2c(OCc3ccccc3)ncnc21)NCCN1CCOCC1`, the inhibition is inactive: 18.4%.
On to `CCCCCCNCCn1cnc2c(N)ncnc21`, for which the inhibition is inactive: 8.89%.
As to `Cc1ccc2c(c1)C1CN(C)CCC1N2C(=S)Nc1ccc(Cl)cc1Cl` (stereo unspecified), the inhibition was inactive: 7.83%.
In the case of `CSc1nc(N)nc2c1ncn2CC(=O)NCCCN1CCCC1=O`, the inhibition is inactive: 17.4%.
Turning to `Cn1c(=O)c2c(nc(NCc3ccccc3)n2CC(N)=O)n(C)c1=O`, the inhibition was inactive: 11.2%.
Turning to `COc1ccc(CNC(=O)CCNC(=O)N2CCn3c2nc2ccccc23)cc1`, the inhibition is inactive: 13.6%.
Regarding `Cc1cc2ncn(C3CC(=O)N(C)C3=O)c2cc1C` (stereo unspecified), the inhibition is inactive: 12.5%.
Regarding `O=P1(N(CCCl)CCCl)OCCCN1CCCl` (stereo unspecified), the inhibition is inactive: 7.43%.
In the case of `O=P1(N(CCCl)CCCl)Nc2ccccc2N1`, the inhibition was inactive: 12.1%.
In the case of `C=CCSc1nnc(NC(=O)Cn2cnc3c2c(=O)n(C)c(=O)n3C)s1`, the inhibition was inactive: -1.78%.
To `c1ccc(CN2CCC(Nc3nc(-c4ccccc4)nc4ccccc34)CC2)cc1` belongs inactive: -34.5%.
Turning to `COc1cc(I)ccc1[As](=O)(O)O`, the inhibition was inactive: 0.11%.
For the compound `COc1cccc(NC(=O)[C@@H](NC(=O)N2CCn3c2nc2ccccc23)C(C)C)c1`, the inhibition was inactive: 1.74%.
With `CCCCNc1nc2ccccc2n1CC(=O)Nc1c(C)cccc1CC` the figure was inactive: 5.32%; with `CC(O)CNc1nc2ccccc2n1CC(=O)N1CCN(Cc2ccccc2)CC1` (stereo unspecified), inactive: -2.7%; with `CCCn1c(=O)[nH]c(=O)c2c1nc(-c1ccc3c(c1)OCCO3)n2CCN1CCOCC1`, inactive: 1.66%.
With `Cn1c(=O)[nH]c(=O)c2c1nc(CN1CCN(c3ccc(F)cc3)CC1)n2CCN1CCOCC1` the figure was inactive: 13.1%; with `COc1ccc2nc(NP(=O)(c3ccccc3)c3ccccc3)sc2c1`, inactive: 14.2%; with `CCOC(=O)c1cccc(NC(=O)Cn2c(CC(=O)NC)nc3ccccc32)c1`, inactive: -3.45%.
To `Cc1ccc(NC(=O)Cn2cnc3c(OCc4ccccc4)ncnc32)cc1C` belongs inactive: -5.91%; to `C(=N\c1nc2ccccc2n1CCN1CCCCC1)/c1cccs1`, inactive: 5.28%; to `CSCC[C@H](NC(=O)N1CCn2c1nc1ccccc12)C(=O)NCc1ccccc1`, inactive: 16.3%.
As for `Cc1ccc(/C=N/NC(=O)Cn2cnc3ccccc32)o1`, the inhibition was inactive: 8.07%.
As for `CC(C)N(C(=O)Cn1c(-c2ccccc2Cl)nc2ccccc21)c1ccccc1`, the inhibition is inactive: 9.71%.
In the case of `Cn1c(=O)[nH]c(=O)c2c1nc(N1CCCCCC1)n2CCN1CCCCCC1`, the inhibition was inactive: -10.6%.
To `O=C(CCCCCNC(=O)N1CCn2c1nc1ccccc12)N[C@@H](C(=O)O)c1ccccc1` belongs inactive: 20%; to `Cc1c2c(nc3ccccc13)SC(C(Cl)Cl)C2` (stereo unspecified), inactive: -20.5%; to `NC(=O)CC(NC(=O)Cc1ccc(Br)cc1)c1ccc(NC2CCN(Cc3ccccc3)CC2)c([N+](=O)[O-])c1` (stereo unspecified), inactive: -1.97%.
On to `O=C(Cn1cnc2ccccc21)NC(c1ccccc1)c1ccccc1`, for which the inhibition is inactive: 6.48%.
For the compound `Cc1ccccc1Oc1ccc2c(c1)[C@@H]1C[C@H](N(C)C(=O)c3ccc(C#N)cc3)[C@H]([C@H](C)O)C(=O)N1CC2`, the inhibition was inactive: 4.23%.
On to `NC(=O)CS(=O)(=O)c1nc2ccccc2n1CC(=O)N1CCCCC1`, for which the inhibition is inactive: 4.74%.
To `Cc1ccc(S(=O)(=O)N2CCCCC2)cc1NC(=O)Cn1cnc2c1c(=O)n(C)c(=O)n2C` belongs inactive: 9.77%; to `O=C(Cn1cnc2c(NCc3ccccc3)ncnc21)NCCCN1CCCC1=O`, inactive: 18.3%; to `c1ccc2c(c1)ncn2CCN1CCCCC1`, inactive: -1.51%.
To `Cn1c(=O)c2c(ncn2CC(=O)Nc2nccs2)n(C)c1=O` belongs inactive: 12.2%.
To `CCn1cc(C(=O)N2CCn3c(nc4ccccc43)C2)c(=O)c2ccc(C)nc21` belongs inactive: 5.05%.

Values taken from PubChem BioAssay AID504357 (The Scripps Research Institute Molecular Screening Center, 2011).
